# Laboratory results taken from PubChem BioAssay AID455 (Sanford-Burnham Center for Chemical Genomics, 2006).
# The list shows a part of the results, in another mix than the full data. Some of these compounds have results that are not shown, active ones among them. Activity calls are given as the source filed them.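 The calls were made as follows: active = a compound raising TNF-alpha-driven VCAM-1 surface staining, with its hit status upheld on visual or statistical review; inactive = the rest, including hits rejected on review.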
# Assay: boosters of cytokine-driven VCAM-1 levels – cell-based, plate reader, pooled HUVEC, TNFa stimulus (AID 455)
# Details: HUVEC TNFa-induced VCAM-1 immunofluorescence
row,Compound,outcome
1,O=C(OC1CN2CCC1CC2)C(CO)(c1ccccc1)c1ccccc1 (stereo unspecified),inactive
